# scFv variants of Ab-14 (heavy chain) against a SARS-CoV-2 spike peptide

Source: Li et al. 2023 (doi:10.1038/s41467-023-39022-2), MIT Lincoln Laboratory and A-Alpha Bio; data file from the FLAb repository.

Binding partner: SARS-CoV-2 spike HR2 peptide, sequence PDVDLGDISGINAS.

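The starting antibody came from a phage panning campaign against this peptide. Designed CDR sequences, proposed from the first random library and measured here. Group labels follow the data file (Ctrl: baseline library sampled from a position-specific scoring matrix, with some repeated check sequences; GPLM: also part of the Gaussian process libraries; HC: hill climbing; a sequence that several methods proposed may carry one label only). The assay is AlphaSeq: two haploid yeast populations carry antibody and antigen on their surface. Binding brings cells together so that they mate, and sequencing counts the barcode pairs among the diploids. Each replicate has its own calibration line, from reference interactions of the BCL2 family. The assay was run in six technical replicates.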

Parent scFv Ab-14: VH joined to VL by the linker GGGGSGGGGSGGGGS. Changes lie in the heavy chain CDRs alone.
VH: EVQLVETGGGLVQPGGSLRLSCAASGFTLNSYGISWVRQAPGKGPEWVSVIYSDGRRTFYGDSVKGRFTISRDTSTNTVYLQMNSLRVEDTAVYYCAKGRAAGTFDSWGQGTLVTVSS
VL: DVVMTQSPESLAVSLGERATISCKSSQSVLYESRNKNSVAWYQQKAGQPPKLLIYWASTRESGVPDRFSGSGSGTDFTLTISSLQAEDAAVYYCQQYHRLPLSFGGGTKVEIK

The parent's heavy chain CDRs are GFTLNSYGIS, VIYSDGRRTFYGDSVK, GRAAGTFDS; each variant's own CDRs replace them letter for letter.
Values are log10 of the apparent Kd in nM; lower means stronger binding.
Replicates are averaged; those with no signal do not enter the mean.
A pair that was not seen in that replicate is written "n.d."; this usually means weak binding, but a binder can also be missed.
Of ten entries with the parent sequence, four were seen in most replicates (averages 0.34 to 2.37), three in one and three in none, so single entries are noisy.
The authors averaged sequences with at least three values out of six and counted those with two or fewer as poor binders.
Where one sequence has several entries in the source, the replicates are listed entry by entry, parted by semicolons.
As a blank, each scFv also met three strains without target: over all heavy chain designs, 1% of these pairings were detected, typically at 2.08 and seldom below 0.84. The control count says in how many pairings with the empty strains this scFv gave a signal, with their mean in brackets.
The range of this assay differs from that of the first round, and the authors advise against merging the two.

| # | CDR-H1 | CDR-H2 | CDR-H3 | group | log10 Kd (nM) by replicate | mean log10 Kd (nM) | empty controls |
|---|---|---|---|---|---|---|---|
| 1 | GFTLNNYGIS | VIYSDGRRTFYGDDVK | GAAAGWFDS | Ctrl | n.d. n.d. n.d. n.d. n.d. n.d. | n.d. | 0/18 |
| 2 | GFQLSSYGIS | VIYSDGRRTFYGDSVK | GRAAGTFDM | Ctrl | 2.08 1.44 2.37 1.83 1.56 1.74 | 1.83 | 1/18 (3.80) |
| 3 | GFTLNSYGIS | VIYSDGRRTFYGDSVK | GRAAGRDDS | Ctrl | n.d. n.d. n.d. n.d. n.d. n.d. | n.d. | 0/18 |
| 4 | GRTLNSYGIS | VIYSDGERTFYGDSVK | RRAAGTFNS | Ctrl | n.d. n.d. n.d. n.d. n.d. n.d. | n.d. | 0/18 |
| 5 | GFTLNSYGIS | VIYSDGMRTFYGDSVV | GQAAGTFDS | Ctrl | n.d. n.d. n.d. n.d. n.d. n.d. | n.d. | 0/18 |
| 6 | GFTLNSYGIS | VIYSDGRRTAYDDQVK | GRPAGTFDD | Ctrl | 0.73 1.06 1.29 0.57 1.42 0.81 | 0.98 | 2/18 (2.83) |
| 7 | GFTLNSYGIS | VIYADGRRTFYSDSVK | GRAAGTFDS | Ctrl+GPLM_HC | -0.22 -0.41 -0.37 -0.41 -0.46 -0.34; 0.09 0.12 0.02 -0.25 -0.32 0.44 | -0.18 | 0/36 |
| 8 | GFDLNSYGIS | VIYSDGRRTFYGDSVK | GRWAGTFDS | Ctrl | 0.41 0.66 0.30 0.53 0.06 0.42 | 0.40 | 0/18 |
| 9 | GFTLNDYGIS | VIYSDGRRTFYGDSVK | GVAAGTFDW | Ctrl | n.d. n.d. n.d. n.d. n.d. n.d. | n.d. | 0/18 |
| 10 | GFTLNSYGIS | VIYSDGRRTFYGDSVK | GKPAGTFDS | Ctrl | n.d. n.d. n.d. n.d. n.d. n.d. | n.d. | 1/18 (2.50) |
| 11 | GFTLNSYGIS | VIYSDGRRTSYGDSVK | GELAGTFDS | Ctrl | 1.30 1.26 n.d. 2.02 0.90 3.01 | 1.70 | 1/18 (1.44) |
| 12 | GFTLNQYGIS | VIYSDGRRTFYGDSVK | GRASGTFDS | Ctrl | 1.77 n.d. n.d. 1.62 n.d. n.d. | 1.70 | 0/18 |
| 13 | GFTLNNYGIS | VIYSDGRRTFYGNSVK | GTAAGTFDL | Ctrl | 1.37 1.26 1.50 1.36 0.87 1.41 | 1.30 | 1/18 (2.13) |
| 14 | GFTLNNYGIS | VIYADGRRTFYGDSVK | GRAALTFDS | Ctrl | n.d. n.d. n.d. n.d. n.d. n.d. | n.d. | 0/18 |
| 15 | GFTINSYGIH | VIYSDGRRTFYGDDVK | GRNAGTKDS | Ctrl | n.d. n.d. n.d. n.d. n.d. n.d. | n.d. | 0/18 |
| 16 | GFTINSYGIS | VIYSDGRRTFYGDSVK | GRADGTFDS | Ctrl | n.d. n.d. n.d. n.d. n.d. n.d. | n.d. | 0/18 |
| 17 | GFTLNSYGIS | VIYSDGRRTFYGDSVK | GFLTGTFDS | Ctrl | n.d. n.d. 1.55 n.d. n.d. n.d. | 1.55 | 0/18 |
| 18 | GFTINSYGIS | VIYSDGRRTFYGDSVK | GRAAGTFIS | Ctrl | n.d. n.d. n.d. n.d. n.d. n.d. | n.d. | 0/18 |
| 19 | GFTLNSYGIS | VIYSDGRRVFYGDSVK | GRAAGTFDE | Ctrl | n.d. n.d. 2.69 n.d. 2.75 1.70 | 2.38 | 0/18 |
| 20 | GFTLNQYGIS | VIYSDGRRTFYGPSVK | GRAAGTFDS | Ctrl | 1.20 1.66 1.65 1.28 1.15 n.d. | 1.39 | 1/18 (2.20) |
| 21 | GQQLNSFGYS | VIYSDGRRTAYGDSVK | GEEALTFDS | Ctrl | n.d. n.d. n.d. n.d. n.d. n.d. | n.d. | 0/18 |
| 22 | GFTVNSYGIS | VIYADGRRTFYGDSVK | GRVAGVFDS | Ctrl | 2.23 0.84 1.11 0.37 1.37 1.37 | 1.22 | 0/18 |
| 23 | GFTLNSYGIS | VIYSDGERTFYGDSVK | GRDAGTVDS | Ctrl | n.d. n.d. n.d. n.d. n.d. n.d. | n.d. | 0/18 |
| 24 | GFTLNSYGIS | VIYSDGRRTFYGDSVK | WRAMGTFDS | Ctrl | n.d. n.d. n.d. n.d. n.d. n.d. | n.d. | 0/18 |
| 25 | GFTLNSYGIS | VIYSDGRRTFYGDFVK | GRAAGRFDS | Ctrl | n.d. n.d. n.d. n.d. n.d. n.d. | n.d. | 0/18 |
| 26 | GFTLESYGYS | VIYSDGRRTFYGDSVK | GRAAGTFDQ | Ctrl | n.d. n.d. n.d. n.d. n.d. n.d. | n.d. | 0/18 |
| 27 | GFKLLSYGIS | VIYSDGRRTFYSDSVK | GRAIGTFDS | Ctrl | n.d. n.d. n.d. n.d. n.d. n.d. | n.d. | 0/18 |
| 28 | GFWLNYYGYS | VIYSDGRRTFYLDSVK | GRAAGTFDS | Ctrl | n.d. n.d. n.d. n.d. n.d. n.d. | n.d. | 0/18 |
| 29 | GFTLNSYGIS | VIYSDGRRTFYLDSVK | GRAGGTFDT | Ctrl | n.d. n.d. n.d. 0.73 1.65 1.70 | 1.36 | 0/18 |
| 30 | GFTLGSYGIS | VIYSDGRRTAYHDSVK | GRVAGTFDS | Ctrl | 0.40 0.49 0.54 0.38 0.76 0.54 | 0.52 | 0/18 |
| 31 | KFTLNEYGIS | VIYSDGRRTFYTDSVK | GRATGTFDS | Ctrl | n.d. n.d. n.d. n.d. n.d. n.d. | n.d. | 0/18 |
| 32 | GFTLNSYGIS | VIYADGRRTYYGDSVK | GRAAGTFDQ | Ctrl | 0.63 0.93 0.53 0.26 0.32 0.48 | 0.52 | 0/18 |
| 33 | GFTLNSYGIS | VIYSDGRREWYGDSVK | GRAAGTFKS | Ctrl | n.d. n.d. n.d. n.d. n.d. n.d. | n.d. | 1/18 (2.18) |
| 34 | GNTLNSYGIQ | VIYSDGRRTFYGDSVK | GRAAGTFDS | Ctrl | 0.57 1.26 1.39 1.68 1.44 1.96 | 1.38 | 1/18 (2.36) |
| 35 | GFSLLEYGIS | VIYSDGRRTFYGDKVK | QRSAGTFDS | Ctrl | n.d. n.d. n.d. n.d. n.d. n.d. | n.d. | 0/18 |
| 36 | GFTLQSYGIS | VIYSDGRRTFYGDSVK | GRAAGLFDM | Ctrl | n.d. n.d. n.d. n.d. n.d. n.d. | n.d. | 0/18 |
| 37 | KFQLNSYGIS | VIYSDGRRTFYGDSVK | GRAAGTFDS | Ctrl | n.d. n.d. n.d. n.d. n.d. n.d. | n.d. | 0/18 |
| 38 | GFTLNSYGIS | VIYSDGRRTFYGDSVK | GRAAGTFDY | Ctrl | 1.47 2.48 n.d. n.d. 2.18 n.d. | 2.04 | 1/18 (2.63) |
| 39 | GFTLNSYGIS | VIYSDGRRTFYQDSVK | GRAAGTFEI | Ctrl | n.d. n.d. n.d. 1.13 n.d. n.d. | 1.13 | 0/18 |
| 40 | GFNLNSHGIS | VIYSDGRRTFYGDSVK | GRAAGTFDS | Ctrl | n.d. 1.81 2.01 n.d. 1.61 2.91 | 2.08 | 0/18 |
| 41 | RFTLNSYGIS | VIYSDGRRTFYGDSVK | GRAAGTSDS | Ctrl | n.d. n.d. n.d. n.d. n.d. n.d. | n.d. | 0/18 |
| 42 | GFALNMYGIS | VIYSDGRRTFYGDSVK | GRAAGTFDS | Ctrl | n.d. 2.07 1.61 n.d. 1.46 2.02 | 1.79 | 1/18 (2.14) |
| 43 | GFTLNSYGIS | VIYSDGQRTFYGDSVK | GAAAGTFDS | Ctrl | 1.95 2.09 1.58 2.12 2.21 2.55 | 2.08 | 1/18 (2.55) |
| 44 | GFTLNQYGIS | VIYSDGRRTFYGDSVK | GSAAGTFDS | Ctrl | 0.37 0.10 -0.06 0.12 0.09 0.44 | 0.18 | 3/18 (2.56) |
| 45 | GFTLNMYGIS | VIYSDGRRTFYGDSVK | GRAGGTFDP | Ctrl | n.d. n.d. n.d. n.d. n.d. n.d. | n.d. | 0/18 |
| 46 | GFTLLFYGIS | VIYSDGRRTIYGDSVK | GREASTFDS | Ctrl | n.d. n.d. n.d. n.d. n.d. n.d. | n.d. | 0/18 |

Excerpt, the final 8 entries:

| CDR-H1 | CDR-H2 | CDR-H3 | group | log10 Kd (nM) by replicate | mean log10 Kd (nM) | empty controls |
|---|---|---|---|---|---|---|
| GFTLNSYGIS | VIYSDGRRTFYQDSVK | GRAAGTFEI | Ctrl | n.d. n.d. n.d. 1.13 n.d. n.d. | 1.13 | 0/18 |
| GFNLNSHGIS | VIYSDGRRTFYGDSVK | GRAAGTFDS | Ctrl | n.d. 1.81 2.01 n.d. 1.61 2.91 | 2.08 | 0/18 |
| RFTLNSYGIS | VIYSDGRRTFYGDSVK | GRAAGTSDS | Ctrl | n.d. n.d. n.d. n.d. n.d. n.d. | n.d. | 0/18 |
| GFALNMYGIS | VIYSDGRRTFYGDSVK | GRAAGTFDS | Ctrl | n.d. 2.07 1.61 n.d. 1.46 2.02 | 1.79 | 1/18 (2.14) |
| GFTLNSYGIS | VIYSDGQRTFYGDSVK | GAAAGTFDS | Ctrl | 1.95 2.09 1.58 2.12 2.21 2.55 | 2.08 | 1/18 (2.55) |
| GFTLNQYGIS | VIYSDGRRTFYGDSVK | GSAAGTFDS | Ctrl | 0.37 0.10 -0.06 0.12 0.09 0.44 | 0.18 | 3/18 (2.56) |
| GFTLNMYGIS | VIYSDGRRTFYGDSVK | GRAGGTFDP | Ctrl | n.d. n.d. n.d. n.d. n.d. n.d. | n.d. | 0/18 |
| GFTLLFYGIS | VIYSDGRRTIYGDSVK | GREASTFDS | Ctrl | n.d. n.d. n.d. n.d. n.d. n.d. | n.d. | 0/18 |